Article PMC3386426 (Journal of Medicinal Chemistry, 2012)

Key:
[1] = tested on: L1210 murine leukemia cell line; assay: cell growth inhibition in a cytotoxic assay with L1210; format: cell-based
[2] = stability in pH 7.0 phosphate buffer; format: physicochemical

Structure (SMILES)	fold less potent than the parent drug 20 ([1]; L1210, relative to 20)	fold more potent than its unnatural enantiomer ([1]; L1210, relative to ent-(−)-6) [fold]	cleavage in buffer [2]
O=C1Nc2cccc3c4c(cc(c23)O1)N(C(=O)c1cc2cc(NC(=O)c3cc5ccccc5[nH]3)ccc2[nH]1)CC4CCl (single isomer, unassigned; (+)) [(+)-6, N-(2-(10-(Chloromethyl)-5-oxo-5,8,9,10-tetrahydro-4H-pyrrolo[3',2':5,6]naphtho[1,8-de][1,3]oxazine-8-carbonyl)-1H-indol-5-yl)-1H-indole-2-carboxamide]	30–70 fold	6	–
O=C1Nc2cccc3c4c(cc(c23)O1)N(C(=O)c1cc2cc(NC(=O)c3cc5ccccc5[nH]3)ccc2[nH]1)CC4CCl (stereo not drawn) [Compound 6, N-(2-(10-(Chloromethyl)-5-oxo-5,8,9,10-tetrahydro-4H-pyrrolo[3',2':5,6]naphtho[1,8-de][1,3]oxazine-8-carbonyl)-1H-indol-5-yl)-1H-indole-2-carboxamide]	–	–	no cleavage observed
